Reference: ChEMBL document CHEMBL1146805, “Carbonic anhydrase inhibitors. Inhibition of cytosolic isozyme XIII with aromatic and heterocyclic sulfonamides: a novel target for the drug design” (Bioorg Med Chem Lett, 2004)

Chains of the proteins cited; added tags and fusions are not shown. Lines headed by an entry give the natural chain unless they say otherwise; changes in a name come on top.
UniProt Q9D6N1: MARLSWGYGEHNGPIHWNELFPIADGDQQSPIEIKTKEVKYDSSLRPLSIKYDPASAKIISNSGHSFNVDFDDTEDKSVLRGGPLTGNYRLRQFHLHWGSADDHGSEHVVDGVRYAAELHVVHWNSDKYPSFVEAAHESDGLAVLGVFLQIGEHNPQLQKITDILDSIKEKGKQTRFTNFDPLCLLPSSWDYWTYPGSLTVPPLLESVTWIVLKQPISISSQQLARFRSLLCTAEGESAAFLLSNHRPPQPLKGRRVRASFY

Target: Carbonic anhydrase 13 (Mus musculus, UniProt Q9D6N1)

SMILES: CC(=O)/N=c1/sc(S(N)(=O)=O)nn1C [METHAZOLAMIDE]
- Ki: 19 nM
